Tested on: HL60 cells
Assay: Induction of apoptosis in HL60 cells
Format: cell-based, human
Settings: N-acetylcysteine for 13 h prior to exposure

CCCCSSc1ncc[nH]1 [III-2, n-butyl 2-imidazolyl disulfide]
apoptosis after pretreatment with N-acetylcysteine: prevented apoptosis

From US6552060B1, “Asymmetric disulfides and methods of using same” (Prolx Pharmaceuticals, Inc., priority 1997, dated 2003)
